Experimental findings from patent US20140227357A1, “FILL FORMULATIONS AND CAPSULES AND METHOD OF USE TO AVOID MIGRATION OF FILL INTO OR THROUGH THE SHELL” (CAPSUGEL BELGIUM NV, priority 2011, published 2014) are described below.

Entries after “also recorded” stand apart in the source; their conditions may differ.

This data set is described as follows: Stability testing (loss of volatile compound as measured by weight decrease), 40° C. ventilated oven. The data set is classed as physicochemical. Conditions: 50 μL fill, non sealed size 3 LICAPS, 40° C. oven, after 5 days. On the procedure: Stability testing (loss of volatile compound as measured by weight decrease): Six (6) LICAPS® Capsules were manually filled with 2-butanol. Each LICAPS® capsule was individually weighed at time zero, stored in a ventilated oven at 40° C., and then reweighed at defined time points. […] The results are represented graphically in FIG. 4.
Methods: Size 3 LICAPS® capsules (n=6) were manually filled with 2-butanol (50 μL or 225 μL). The LICAPS® capsules were either not sealed or sealed on CIFS® equipment. Each capsule was individually weighed at time zero and placed in an oven at 40° C. and reweighted at defined time points.
Stability testing (loss of volatile compound as measured by weight decrease): Six LICAPS® capsules were manually filled with the composition described in Table 7, Each UCAPS® capsule was individually weighed at time zero, stored at 40° C. in a ventilated oven, and reweighed at defined time points. The results are represented graphically in FIG. 11.
Methods: LICAPS® size 3 capsules (n=6) were tilled with a formulation of 2-butanol +0.75% HPC (50 μL). The LICAPS® capsules were either not sealed or manually sealed. Each capsule was individually weighted at time zero and placed in a oven at 40° C. for a week and then reweidtted at defined time points.

With 2-butanol [Formulation 2-butanol], the “weight of capsules (loss of fill)” value is given as “significant decrease in weight; also recorded: important decrease in weight”.
